Source: paper PMC6419571, “Discovery and lead optimisation of a potent, selective and orally bioavailable RARβ agonist for the potential treatment of nerve injury” (Bioorganic & Medicinal Chemistry Letters, 2019)

Protein sequences, listed by entry. Tags and fused reporters are not part of them. Residues count along the entry.
UniProt P22605, 210-444 limits assumed: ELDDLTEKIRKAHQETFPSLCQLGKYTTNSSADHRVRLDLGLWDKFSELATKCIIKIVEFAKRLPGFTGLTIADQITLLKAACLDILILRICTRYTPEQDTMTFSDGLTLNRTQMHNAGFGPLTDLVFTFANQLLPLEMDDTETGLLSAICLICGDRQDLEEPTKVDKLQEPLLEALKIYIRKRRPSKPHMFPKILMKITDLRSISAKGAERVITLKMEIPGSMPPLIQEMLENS

Target: T1, RARβ (Mus musculus, UniProt P22605)
T1 construct: expressed in transfected cells; host or cells: COS-7
Assay: RAR beta transactivation assay (gal4-RAR LBD fusion, luciferase reporter, COS-7 cells)
Assay type: cell-based
Experimental: Compounds were tested in transactivation assays at the RAR α, β and γ receptors.
Transactivation assays for RAR alpha, beta and gamma receptors:
Transcriptional transactivation assays have been performed with gal4 fusion receptor constructs, created using each of the mouse RAR ligand-binding domains, co-transfected with the pFR-luc (Stratagene) reporter construct in COS-7 cells.
Briefly, on day one, 96 well plates were seeded with 8000 cells per well then left to recover overnight. On day two, the cells were co-transfected with 100ng of reporter plasmid and 10ng of the appropriate receptor plasmid per well using lipofectamine (Invitrogen). On day three, the lipofectamine containing media was replaced by a DMEM without phenol red, followed by the addition of novel compounds dissolved in 1µl of DMSO to each well’s 100µl total volume. Finally, on day four, the cells were lysed and their luciferase substrate was provided by the BrightGlo reagent (Promega), the plates were then read on the MicroBeta TriLux (Perkin Elmer).
Data for test compounds are quoted as EC50 values. Where replicate data has been generated the data are quoted as the mean EC50 from the separate experiments.

SMILES: COc1ccc(-c2ccc3cc(C(=O)O)ccc3c2)cc1C1(C)CCCCC1 [CD 2019, reference compound]
- Fold selectivity for β over α (EC50 ratio of α to β, Tables 1 and 4): 11
- Fold selectivity for β over γ (EC50 ratio of γ to β): 1.9
